Data on 16 molecules can be found in PMC6728138 (2019).

What is called Kd is the constant that tells how readily two partners part at equilibrium.

Where “and” joins values, the source holds several entries; their conditions need not be identical. Equal entries are not always repeated.

The target of one experiment is T1, calcineurin (CN) heterodimer, wild type: N-terminally 6-His-tagged human calcineurin A truncated at residue … (human | , UniProt Q08209 1-400; P63098 1-170).
On to MAGPIPVIVITGPHEE [PVIVIT peptide with I at position -1], for which the Kd worked out at 90 nM.

Consider LPRIEITPSH [NFATc2 PxIxIT peptide with L at position -1 (LPRIEIT)], for which the Kd turned out to be 1100 nM.

Regarding MAGPHPRIVITGPHEE [PRIVIT peptide (PVIVIT scaffold with V2R)], the Kd turned out to be 330 nM.

Take KRMEPPKIIITDTEIS [AKAP79 PxIxIT peptide with I1 and A2 mutated (PPKIIIT), eGFP fusion]: the Kd worked out at 190 nM.

For AGPHPKIIITGPHEE [PKIVIT peptide with V4I (AGPHPKIIITGPHEE)], the Kd is 340 nM.

As for MAGPHPVIVITGPHEE [PVIVIT peptide (MAGPHPVIVITGPHEE)], the Kd is 500 nM.

For the molecule AGPIPKIVITGPHEE [PKIVIT peptide with I at position -1 (IPKIVITGPH)], the Kd is 70 nM.

Take SPRIEITPSH [NFATc2 PxIxIT peptide (WT SPRIEITPSH)]: the Kd stood at 25600 nM.

As for MAGPHPKIVITGPHEE [PKIVIT peptide (PVIVIT scaffold with V2K)], the Kd is 610 nM.

Take MAGPHPVIVITGPTEE (phosphothreonine at motif position 9) [PVIVIT peptide with phosphothreonine (Z) at position 9]: the Kd stood at 20 nM.

SPRIEITASH [NFATc2 PxIxIT peptide with P7A]: the Kd was 4050 nM.

For the molecule KRMEPIAIIITDTEIS [AKAP79 PxIxIT peptide (KRMEPIAIIITDTEIS)], the Kd was determined as 1180 nM.

A further experiment deals with T1, calcineurin (CN) heterodimer, wild …. The source holds these as a separate data set.
On to MAGPHPVIAVTGPHEE [PVIAVT variant of the PVIVIT peptide], for which the Kd came out at 320000 nM.

Consider MAGPHPVIVINGPHEE [PVIVIN variant of the PVIVIT peptide], for which the Kd turned out to be 58000 nM.

Regarding PALESPRIEITSCLGL [NFATc1 PxIxIT peptide], the Kd stood at 115000 nM.

MAGPHPVIVITGPHEE [PVIVIT peptide (MAGPHPVIVITGPHEE)]: the Kd is 2400 nM and 1300 nM.

In the case of ATDTTPSVVVHVCESD [RCAN1 PxIxIT peptide], the Kd stood at 270000 nM.

With SPRIEITPSH [NFATc2 PxIxIT peptide (WT SPRIEITPSH)], the Kd amounted to 6200 nM.

On to MAGPHPKIVITGPHEE [PKIVIT peptide (PVIVIT scaffold with V2K)], for which the Kd came to 400 nM.

KRMEPIAIIITDTEIS [AKAP79 PxIxIT peptide (KRMEPIAIIITDTEIS)]: the Kd stood at 24000 nM.

For the next experiment the target is unchanged. The source holds these as a separate data set.
For MAGPHPVIAVTGPHEE [PVIAVT variant of the PVIVIT peptide], the Kd worked out at 160000 nM.
